# Laboratory results as given in ChEMBL document CHEMBL1130597, “Design of a high affinity peptidomimetic opioid agonist from peptide pharmacophore models” (Bioorg Med Chem Lett, 1998).
# Amino acid sequences for entries named in this document (tags omitted). A change or cut given only in a name is not applied to a line headed by its entry.
# UniProt P97266, whole entry: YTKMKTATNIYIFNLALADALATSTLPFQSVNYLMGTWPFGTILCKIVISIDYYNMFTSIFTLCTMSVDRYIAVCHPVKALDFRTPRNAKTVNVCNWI
# UniProt P41144: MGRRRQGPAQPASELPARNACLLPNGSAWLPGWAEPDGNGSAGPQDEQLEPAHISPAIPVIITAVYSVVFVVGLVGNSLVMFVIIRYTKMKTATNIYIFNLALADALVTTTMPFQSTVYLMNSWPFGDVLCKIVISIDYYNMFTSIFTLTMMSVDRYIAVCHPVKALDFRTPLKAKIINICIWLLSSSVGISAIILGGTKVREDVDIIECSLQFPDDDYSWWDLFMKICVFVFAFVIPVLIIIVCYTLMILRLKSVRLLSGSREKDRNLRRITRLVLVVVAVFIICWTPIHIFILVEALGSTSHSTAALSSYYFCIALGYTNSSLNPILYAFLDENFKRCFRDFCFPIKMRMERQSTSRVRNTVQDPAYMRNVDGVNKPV
# pKi: −log10 of the molar value.
# Experiments:
# [1] = target: Mu-type opioid receptor (Cavia porcellus, UniProt P97266); assay type: cell membranes, Brain, Membrane
# [2] = target: Kappa-type opioid receptor (Cavia porcellus, UniProt P41144); assay type: cell membranes, Brain, Membrane
Compound,pKi [1],pKi [2]
CC1(C)SSC[C@@H](NC(=O)[C@@H](N)Cc2ccc(O)cc2)C(=O)N[C@@H](Cc2ccccc2)C(=O)N[C@@H]1C(N)=O,8.15,< 5.00
CC1(C)SSC[C@H](NC(=O)[C@@H](N)Cc2ccc(O)cc2)C(=O)N[C@@H](Cc2ccccc2)C(=O)N[C@@H]1C(=O)O,–,< 6.00
